The experiment addresses CDK12 complexed with Cyclin K (Homo sapiens (Human), UniProt Q9NYV4). Kind of experiment: CDK enzymatic assay (HTRF, LANCE Ultra kinase assay). The note with it: read-out: CDK12 IC50, 60 minutes pre-incubation, 1 mM ATP. The protocol: The following activity of the CDK enzymes in complex with their respective cyclins we assayed: CDK1 complexed with Cyclin B1; CDK2 complexed with Cyclin E1; CDK4 complexed with Cyclin D1; CDK6 complexed with Cyclin D1; CDK6 complexed with Cyclin D3; CDK9 complexed with Cyclin T1; CDK7 complexed with Cyclin H/MAT1; CDK2 complexed with Cyclin A2; CDK5 complexed with p35; CDK12 complexed with Cyclin K; CDK13 complexed with Cyclin K. These in vitro enzyme activity are assayed using homogeneous time-resolved energy transfer (HTRF), which measures phosphorylation of a peptide substrate. […] Each CDK enzyme activity assays utilized human CDK co-expressed as N-terminal GST-tagged protein with its full length cyclin partner using a baculovirus expression system. […]
The reaction was then incubated for 60-90 minutes at room temperature. […] HTRF signals were read after 15-120 minutes. A ratio of fluorescence transferred to the labeled substrate (665 nm) relative to fluorescence of the Europium donor (620 nm) represents the extent of phosphorylation. […] Normalized data was analyzed using a three or four parameter dose response curve to determine IC50 for each compound and are shown in Table A. Control reference inhibitors were included on each plate.
On the technique in general: In TR-FRET formats the signal depends on donor and acceptor labels being close together.

By UniProt entry, the sequences of proteins in these tests, tags left out.
UniProt Q9NYV4, whole entry: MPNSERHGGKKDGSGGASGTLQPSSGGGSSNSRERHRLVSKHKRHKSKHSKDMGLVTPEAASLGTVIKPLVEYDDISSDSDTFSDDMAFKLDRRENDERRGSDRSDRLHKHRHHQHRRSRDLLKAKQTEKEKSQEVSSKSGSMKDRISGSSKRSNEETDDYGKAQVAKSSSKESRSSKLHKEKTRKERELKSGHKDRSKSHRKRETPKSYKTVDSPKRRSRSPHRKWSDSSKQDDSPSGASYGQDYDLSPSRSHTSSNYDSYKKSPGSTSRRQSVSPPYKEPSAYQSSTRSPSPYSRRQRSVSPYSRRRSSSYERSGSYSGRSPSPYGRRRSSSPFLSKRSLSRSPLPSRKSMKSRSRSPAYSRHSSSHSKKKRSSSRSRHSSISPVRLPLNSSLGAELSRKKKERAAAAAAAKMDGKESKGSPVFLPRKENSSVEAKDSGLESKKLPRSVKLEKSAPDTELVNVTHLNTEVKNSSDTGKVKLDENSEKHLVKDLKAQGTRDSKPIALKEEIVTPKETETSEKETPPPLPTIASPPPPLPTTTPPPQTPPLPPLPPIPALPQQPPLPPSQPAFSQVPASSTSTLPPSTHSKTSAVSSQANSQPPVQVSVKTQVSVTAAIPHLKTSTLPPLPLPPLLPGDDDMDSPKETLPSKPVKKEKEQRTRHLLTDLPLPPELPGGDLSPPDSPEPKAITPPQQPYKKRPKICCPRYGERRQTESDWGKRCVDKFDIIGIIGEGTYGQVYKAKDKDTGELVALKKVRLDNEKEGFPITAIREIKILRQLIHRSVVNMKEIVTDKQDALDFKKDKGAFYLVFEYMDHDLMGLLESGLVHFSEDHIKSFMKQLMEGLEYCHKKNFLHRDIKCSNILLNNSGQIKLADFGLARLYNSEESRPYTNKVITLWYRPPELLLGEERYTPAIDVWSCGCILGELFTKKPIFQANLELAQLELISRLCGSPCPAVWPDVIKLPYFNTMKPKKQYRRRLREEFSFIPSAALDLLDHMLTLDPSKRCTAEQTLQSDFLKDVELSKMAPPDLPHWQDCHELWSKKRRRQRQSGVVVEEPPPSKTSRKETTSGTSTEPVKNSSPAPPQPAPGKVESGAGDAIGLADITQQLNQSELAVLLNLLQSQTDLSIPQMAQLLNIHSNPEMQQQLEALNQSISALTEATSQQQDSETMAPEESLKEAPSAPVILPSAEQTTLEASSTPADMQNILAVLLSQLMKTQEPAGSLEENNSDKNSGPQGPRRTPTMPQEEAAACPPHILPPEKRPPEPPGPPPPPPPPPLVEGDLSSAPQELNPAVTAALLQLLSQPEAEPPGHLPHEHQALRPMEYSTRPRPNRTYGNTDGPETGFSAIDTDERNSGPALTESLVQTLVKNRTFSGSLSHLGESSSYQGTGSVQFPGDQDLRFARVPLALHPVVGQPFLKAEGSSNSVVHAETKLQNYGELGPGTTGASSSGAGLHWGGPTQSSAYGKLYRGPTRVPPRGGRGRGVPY
UniProt O75909, whole entry partner: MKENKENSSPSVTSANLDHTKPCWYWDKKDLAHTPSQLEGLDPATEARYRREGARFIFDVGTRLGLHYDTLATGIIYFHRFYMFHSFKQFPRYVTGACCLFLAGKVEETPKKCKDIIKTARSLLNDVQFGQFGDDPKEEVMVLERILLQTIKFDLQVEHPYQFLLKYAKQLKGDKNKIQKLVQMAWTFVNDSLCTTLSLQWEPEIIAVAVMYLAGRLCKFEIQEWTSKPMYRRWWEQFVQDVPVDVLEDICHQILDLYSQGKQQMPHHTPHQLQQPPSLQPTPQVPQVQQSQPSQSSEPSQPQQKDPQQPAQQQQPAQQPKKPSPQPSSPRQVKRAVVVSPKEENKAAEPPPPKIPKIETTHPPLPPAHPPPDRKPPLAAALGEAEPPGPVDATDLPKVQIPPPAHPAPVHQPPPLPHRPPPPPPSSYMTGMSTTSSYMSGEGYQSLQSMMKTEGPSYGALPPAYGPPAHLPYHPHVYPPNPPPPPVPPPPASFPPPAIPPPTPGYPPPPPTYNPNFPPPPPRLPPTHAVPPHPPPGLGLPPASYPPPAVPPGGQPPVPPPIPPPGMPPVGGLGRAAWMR

Molecules are shown by their SMILES. Where only a bound is given, the exact number is not on record here.

Consider `CC(C)(CO)n1cc(-c2nc(N[C@@H]3CCC[C@H](n4cnc5cc(C#N)cnc54)C3)ncc2C#N)cn1`, for which the IC50 (usually the concentration that inhibits the measured activity by half) was less than 50 nM. The same measure for `FC(F)Cn1cc(-c2nc(N[C@@H]3CCC[C@H](n4cnc5ccncc54)C3)ncc2C(F)(F)F)cn1`: less than 50 nM.

These data come from patent US20250353842A1, “BICYCLIC AMINE CDK12 INHIBITORS” (Incyte Corporation, priority 2022, published 2025).
